{"source": "patent US20260294964A1", "about": "“PHARMACEUTICALS CONTAINING CHELATORS WITH STRONG ZN IONS-HOLDING FEATURE FOR THE TREATMENT OF SYMPTOMS AND DISEASES CAUSED BY MICROORGANISMS/DISEASES CAUSED BY TOXINS OR NEUROTOXINS/CANCER/SEVERAL SYNDROMES” (priority 2023, published 2026)", "system": "small animals contaminated with toxins/neurotoxins", "settings": "mouse, in vivo"}
{"substance": "triethylenetetramine diethylenetriaminepentaacetate", "values": [{"measurement": "multiple of minimum lethal toxin dose at which treated animals did not die", "value": "many times to dozens of times"}]}
